Test results published in patent publication US7192728B2, “Screening assays for agents that alter inhibitor of apoptosis (IAP) protein regulation of caspase activity” (The Burnham Institute, priority 1997, dated 2007).

Tests used:
pro-caspase-9 [1] = assay: Cytochrome c-induced processing of pro-caspase-9 in 293 cytosolic extracts; format: biochemical, human; conditions: 0.2 μM GST-IAP; 30 min at 30° C.
Description: For the results shown in FIG. 4, in vitro translated ^35S-labeled pro-caspase-9 was added to cytosolic extracts from 293 cells, and subsequently incubated for 30 min at 30° C. with (lanes 2–6) or without (lane 1) 10 μM cytochrome c and 1 mM dATP in the presence or absence of 0.2 μM GST-IAP proteins or a GST control protein. Cytochrome c induced processing of pro-caspase-9 was subsequently monitored by SDS-PAGE and autoradiography.
Pro-caspase-9 inhibition by Ac-DEVD-fmk, zVAD-fmk and XIAP was compared as follows. In vitro translated ^35S-labeled pro-caspase-9 was added to cytosolic extracts from 293 cells containing 10 μM cytochrome c and 1 mM dATP. Samples were incubated at 30° C. for 30 minutes in the presence of the indicated concentrations of inhibitors. Proteins were separated on SDS-PAGE gels, dried directly, and exposed to film.

293T cells = assay: Caspase-9-induced pro-caspase-3 processing and apoptosis in transfected 293T cells; format: cell-based, human; conditions: co-transfection with FLAG-caspase-9
Description: (§1) Co-immunoprecipitations and immunoblot assays were performed as follows. Human embryonic kidney 293T cells were maintained in DMEM supplemented with 10% fetal bovine serum, 1 mM L-glutamine and antibiotics. 2×10^6 cells were plated in 10 mm dishes and 24 hr later transiently co-transfected with 2 μg of either pFLAG-CMV2-caspase-9 or pCMV-Fas and 6–8 μg of either pcDNA3myc-XIAP, pcDNA3myc-c-IAP-1, pcDNA3myc-c-IAP-2, or pcDNA3myc-control plasmid DNA by a calcium phosphate precipitation method (Roy et al., supra, 1997). […] Immunoprecipitates were washed 3 times with lysis buffer, and bound proteins separated by SDS-PAGE and analyzed by immunoblotting using antibodies specific for the FLAG epitope (Kodak, Inc.), myc-epitope, or caspase-3.
(§2) Cell lysates were prepared 16 hr later for either (A) immunoblot analysis of caspase-3, or (B) DEVD-AFC. […] Relative apoptosis was scored at 1.5–2 days after transfection by DAPI staining (mean±SE; n=3) for 293 T cells co-transfected with pGFP and FLAG-control or FLAG-pro-caspase-9, and either pcDNA3-myc-tag control plasmid, pcDNA3-myc-XIAP, pcDNA3-myc-IAP-1 or pcDNA3-myc-c-IAP-2. […] Lysates from the same cell (50 μg per lane) were also analyzed by immunoblotting using anti-FLAG and anti-myc antibodies to verify expression of […].

[2] = test system: DEVD-pNA hydrolysis activity in 293 cell cytosolic extracts; assay: Cytochrome c/dATP-induced caspase activation (DEVD hydrolysis) in 293 cell cytosolic extracts; format: biochemical, human; conditions: 3 μM; extracts activated 30 min with cytochrome c and dATP
Description: The cytosol fraction of cell extracts was prepared from 293 embryonic kidney cells or Jurkat T cells, essentially as described (Liu et al., supra, 1996), but with modifications as indicated below. Cells were washed with ice cold buffer A (20 mM Hepes (pH 7.5), 10 mM KCl, 1.5 mM MgCl2, 1 mM EDTA, 1 mM DTT and 0.1 mM PMSF) and suspended in 1 vol buffer A, then incubated on ice for 20 min. 293 cells were disrupted by passage 15× through a 26 gauge needle and Jurkat T cells were disrupted by dounce homogenization in 2 ml using 15 strokes with a pestle B. Cell extracts (10–15 mg total protein/ml) were clarified by centrifugation at 16,000×g for 30 min, then the NaCl concentration was increased by 50 mM. Cytosolic fractions were used immediately or stored frozen at −80° C.
Caspase activity was assayed by release of either 7-amino-4-trifluoromethyl-coumarin (AFC) or p-nitroanilide (pNA) from benzylyoxycarbonyl-DEVD (SEQ ID NO: 2) or benzylyoxycarbonyl-YVAD (SEQ ID NO: 3) synthetic peptides using a Molecular Devices Spectromax 340 for AFC labeled peptides or Perkin/Elmer LS50B for pNA labeled peptides (see Example II; see, also, Zhou et al., supra, 1997). […] DEVD-pNA hydrolysis was measured at various times and multiple experiments were performed using several different GST-XIAP preparations.

pro-caspase-9 [3] = assay: Co-immunoprecipitation of pro-caspase-9 with myc-tagged IAPs in 293T cells; format: binding, human; conditions: anti-myc immunoprecipitation, anti-FLAG blot
Description: as §1, §2

c-IAP-1: cellular IAP protein c-IAP-1/HIAP-2/hMIHB, recombinant GST fusion or myc-tagged
cytochrome c-induced pro-caspase-9 processing (in words) (pro-caspase-9 [1]): inhibited pro-caspase-9 processing, albeit to a lesser extent
caspase-9-induced cleavage of pro-caspase-3 and Ac-DEVD-AFC cleavage activity (in words) (293T cells): markedly reduced
number of apoptotic 293T cells (in words) (293T cells; DAPI staining): a reduction in the number of apoptotic 293T cells
DEVD hydrolysis in activated 293 cell cytosolic extracts (in words) [2]: inhibited DEVD hydrolysis
co-immunoprecipitation of the zymogen form of caspase-9 (in words) (pro-caspase-9 [3]): co-immunoprecipitated
